Reference: ChEMBL document CHEMBL1156911 (Bioorg Med Chem, 2010)

Protein sequences, listed by entry. Tags and fused reporters are not part of them. Lines headed by an entry give the natural chain unless they say otherwise; changes in a name come on top.
UniProt P28845: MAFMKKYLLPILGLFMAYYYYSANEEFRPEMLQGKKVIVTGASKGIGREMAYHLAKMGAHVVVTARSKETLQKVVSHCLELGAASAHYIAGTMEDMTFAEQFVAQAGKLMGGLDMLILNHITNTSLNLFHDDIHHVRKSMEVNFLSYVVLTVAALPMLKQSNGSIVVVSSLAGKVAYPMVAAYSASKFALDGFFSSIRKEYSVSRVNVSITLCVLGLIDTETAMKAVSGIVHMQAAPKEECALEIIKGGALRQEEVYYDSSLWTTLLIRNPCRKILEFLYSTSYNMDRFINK

Molecular target: 11-beta-hydroxysteroid dehydrogenase 1 (Homo sapiens, UniProt P28845)
Conditions: HEK293, 2 uM

inhibition: Active
SMILES: COC(=O)[C@]12CC[C@@H](C)[C@H](C)[C@H]1C1=CC[C@@H]3[C@@]4(C)C[C@@H](O)[C@@H](O)C(C)(C)[C@@H]4CC[C@@]3(C)[C@]1(C)CC2

Activity calls are given as the source filed them. The rule behind the calls is not given here.
